Results on three substances are retold here after patent publication US10604555B2, “GIP derivatives and uses thereof” (priority 2018, dated 2020).

The chains behind the UniProt entries cited, without tags or fusion partners. Residues count along the entry.
UniProt P43220, 24-463: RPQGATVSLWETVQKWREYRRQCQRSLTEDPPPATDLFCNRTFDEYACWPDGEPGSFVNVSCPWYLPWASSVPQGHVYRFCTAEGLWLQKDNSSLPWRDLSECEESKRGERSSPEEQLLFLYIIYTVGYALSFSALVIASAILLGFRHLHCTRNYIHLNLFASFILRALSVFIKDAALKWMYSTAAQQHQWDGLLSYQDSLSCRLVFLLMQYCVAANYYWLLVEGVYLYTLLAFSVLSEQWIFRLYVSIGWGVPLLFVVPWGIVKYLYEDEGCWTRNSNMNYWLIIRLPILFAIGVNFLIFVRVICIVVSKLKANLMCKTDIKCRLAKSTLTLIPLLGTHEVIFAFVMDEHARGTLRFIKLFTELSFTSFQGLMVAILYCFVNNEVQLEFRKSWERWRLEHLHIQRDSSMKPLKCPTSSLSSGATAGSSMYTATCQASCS

Broadly, the EC50 is the concentration at which the effect is half-maximal.

The target in one data set is T1, human GLP-1 receptor (Homo sapiens, UniProt P43220).
T1 construct: expressed in transfected cells; host or cells: BHK (parent line BHKTS13), BHK CRE luc2P hGLP-1R clone #6
In words: In vitro potency (CRE luciferase; whole cells), BHK CRE luc2P hGLP-1R. The note with it: read-out: hGLP-1-R, CRE Luc EC50 (pM), assay performed in presence of 1% HSA, 1% HSA (values marked *). The data set is classed as cell-based. The procedure: In Vitro Potency (CRE Luciferase; Whole Cells)
The in vitro potency is the measure of human GIP, GLP-1 or glucagon receptor activation, respectively, in a whole cell assay.
In vitro potency was determined by measuring the response of the human GIP, GLP-1 or glucagon receptor in a reporter gene assay in individual cell lines. […] When the respective receptor is activated it results in the production of cAMP, which in turn results in the luciferase protein being expressed. When assay incubation is completed the luciferase substrate (luciferin) is added and the enzyme converts luciferin to oxyluciferin to produce bioluminescence. The luminescence is measured as the readout for the assay.
The cells were derived from a clone containing the CRE luciferase element and were established by further transfection with the respective receptor to obtain the current clone.
The cells were cultured at 5% CO2 in Cell Culture Medium. They were aliquoted and stored in liquid nitrogen. The cells were kept in passage and were seeded out the day before each assay. […]
4) Stocks of the test compounds and reference compounds were diluted to a concentration of 0.2 μM in Assay Buffer. […] 11) Each assay plate was read in a microtiter plate reader. […]
The data from the microtiter plate reader was transferred to GraphPad Prism software. […]
A minimum of two replicates was measured for each sample. […]

Data set [1] is described as follows: Pharmacokinetic study in minipigs, terminal half-life after i.v. administration. Particulars: usually 5 nmol/kg. Type of data set: in vivo, Göttingen minipigs.
The nature of data set [2]: ThT fibrillation assay (physical stability). The note with it: 250 μM, pH 7.4, 37° C., 45 hours of incubation. Type of data set: physicochemical. On the procedure: The Thioflavin T assay was performed as outlined in Schlein (2017), AAPS J, 19(2), 397-408.
Low physical stability of a peptide may lead to amyloid fibril formation, which is observed as well-ordered, thread-like macromolecular structures in the sample, which eventually may lead to gel formation. This has traditionally been measured by visual inspection of the sample. However, that kind of measurement is very cumbersome and depending on the observer. Therefore, the application of a small molecule indicator probe is much more advantageous. Thioflavin T (ThT) is such a probe and has a distinct fluorescence signature when binding to fibrils [Naiki et al. (1989) Anal. Biochem. 177, 244-249; LeVine (1999) Methods. Enzymol. 309, 274-284].
The time course for fibril formation can be described by a sigmoidal curve with the following expression [Nielsen et al. (2001) Biochemistry 40, 6036-6046]:
Here, F is the ThT fluorescence at the time t. The constant t0 is the time needed to reach 50% of maximum fluorescence. The two important parameters describing fibril formation are the lag-time calculated by t0−2τ and the apparent rate constant kapp 1/τ.
Few of those intermediates nucleate to form a template onto which further intermediates may assembly and the fibrillation proceeds. The lag-time corresponds to the interval in which the critical mass of nucleus is built up and the apparent rate constant is the rate with which the fibril itself is formed.
Samples are prepared freshly before each assay. […]
Incubation, shaking and measurement of the ThT fluorescence emission were done in a Fluoroskan Ascent FL fluorescence platereader (Thermo Labsystems). […] Fluorescence measurement was done using excitation through a 444 nm filter and measurement of emission through a 485 nm filter. […]
Each run was initiated by incubating the plate at the assay temperature for 10 min. The plate was measured every 20 minutes for a desired period of time. […]
The data set may be fitted to Eq. (1). […] No increase in ThT fluorescence during the duration of the assay was reported as a lag time of 45 hours.

A short description of data set [3]: Chemical stability: HMWP formation by SEC-MS. The data set is classed as physicochemical. Particulars: 37° C., 4 weeks, 250 μM, pH 7.4. The procedure: The aim of this study is to determine the chemical stability of GIP derivative compositions. As a measure of stability of the GIP derivative composition, the formation of high molecular weight peptide formation (% HMWP) as a function of time was analysed by size-exclusion chromatography (SEC-MS). Further, the purity loss of the GIP derivative compositions was measured by LCMS. Samples for chemical stability assays were freshly prepared before each assay. […] The pH of the sample was adjusted to the desired value using appropriate amounts of concentrated NaOH and HCl. […] Formation of covalent oligomers (HMWPs) was analysed and identified by a SEC-MS method. […] The LC system was coupled to both a TUV detector operated at 215 nm, 10 Hz and a high resolution QToF mass spectrometer from Waters (Synapt G2S) operated in positive ion mode and m/z range of 100 to 4000 with normal resolution setting. Lock mass correction against Leu-Enkephalin was done every 31 sec. Spectra were processed in MassLynx version 4.1 and MaxEnt deconvoluted.
On the technique in general: In gel filtration, larger molecules generally elute earlier.

Data set [4] in a line: Chemical stability: purity loss by LCMS. The data set is classed as physicochemical. Particulars: 37° C., 4 weeks, 250 μM, pH 7.4. The procedure:
The aim of this study is to determine the chemical stability of GIP derivative compositions. As a measure of stability of the GIP derivative composition, the formation of high molecular weight peptide formation (% HMWP) as a function of time was analysed by size-exclusion chromatography (SEC-MS). Further, the purity loss of the GIP derivative compositions was measured by LCMS. Samples for chemical stability assays were freshly prepared before each assay. […] The pH of the sample was adjusted to the desired value using appropriate amounts of concentrated NaOH and HCl. […] The column oven was kept at 55° C. […] The solvents were pumped from a binary solvent manager system and mixed on the high pressure side in a mixer with a volume of 50 μl. The gradient and flow can be seen in table 4: [table] A Flow-through-needle auto sampler at 8° C. was used to inject 1 μl of each sample. The effluent passed through a tunable UV detector (TUV) tuned to 215 nm. The outlet from the UV detector passed to the electrospray source of the mass spectrometer. The capillary was held at 3 kV and dry nitrogen gas was purged at a flow of 750 I/h and a temperature of 250° C. The source block was kept at 120° C. and the large bore cone was flushed with nitrogen at 50 I/h with standard electrode potentials on the rest of the instrument. The MS was operated in high resolution mode with a nominal resolution of 35000. The ToF analyser was operated in ADC mode with an m/z window from 100-2000.

Consider “N{1}-acetyl,N{Epsilon-24}-[(4S)-4-carboxy-4-[[(4S)-4-carboxy-4-[[(4S)-4-carboxy-4-[[4-[(19-carboxynonadecanoylamino)methyl]cyclohexanecarbonyl]amino]butanoyl]-amino]butanoyl]amino]butanoyl]-[D-Tyr1,Nle14,Arg18,Aib20,Lys24]-hGIP(1-31) [Compound 25]”, for which the EC50 on human GLP-1 receptor is over 10000 pM. For the same substance, in data set [1], the “t1/2 (hours) harmonic mean” value turned out to be 125 h. For the same substance, in data set [2], the “ThT Assay Lag time” value is given as over 45 h. The “HMWP formation (%/month)” value in data set [3] was determined as 0.40 %/month. Moreover, the “Purity loss (%/month)” value in data set [4] is listed as 2.00 %/month.

“N{1}-acetyl,N{Epsilon-24}-[(4S)-4-carboxy-4-[[(4S)-4-carboxy-4-[[(4S)-4-carboxy-4-[[(4S)-4-carboxy-4-[[4-[(19-carboxynonadecanoylamino)methyl]cyclohexanecarbonyl]-amino]butanoyl]amino]butanoyl]amino]butanoyl]amino]butanoyl]-[D-Tyr1,Nle14,Arg18,Lys24]-hGIP(1-31) [Compound 30]”: the “t1/2 (hours) harmonic mean” value in data set [1] was found to be 99 h. The “ThT Assay Lag time” value in data set [2] is recorded as over 45 h. The “HMWP formation (%/month)” value in data set [3] is listed as 0.10 %/month. Besides, the “Purity loss (%/month)” value in data set [4] is recorded as 1.14 %/month.

On to “N{1}-acetyl,N{Epsilon-24}-[(4S)-4-carboxy-4-[[(4S)-4-carboxy-4-[[(4S)-4-carboxy-4-[[4-[(19-carboxynonadecanoylamino)methyl]cyclohexanecarbonyl]amino]butanoyl]-amino]butanoyl]amino]butanoyl]-[D-Tyr1,Nle14,Arg18,Glu20,Lys24]-hGIP(1-31) [Compound 23]”, for which the “t1/2 (hours) harmonic mean” value in data set [1] is 119 h. Further, in data set [2], the “ThT Assay Lag time” value was over 45 h. Further, in data set [3], the “HMWP formation (%/month)” value was found to be 0.40 %/month. For the same substance, the “Purity loss (%/month)” value in data set [4] was 1.60 %/month.
